Assay results reported in patent US20090209615A1 (published 2009).

Test system: C57BL/6J mice, MCA occlusion/reperfusion
Test: Transient focal cerebral ischemia (MCA occlusion/reperfusion): infarct volume and neurological deficits
Conditions: mouse, in vivo

How did the “window of therapeutic intervention after insult” value turn out when `O=S(=O)(CC1CS1)c1ccc(Oc2ccccc2)cc1` (stereo not shown) [Compound 1, (4-Phenoxyphenylsulfonyl)methylthiirane] was run?
Its value is 6 h.
